Measurements as given in patent US5382596A, “Substituted 2-aminotetralins” (priority 1993, dated 1995).

The chains behind the UniProt entries cited, without tags or fusion partners.
UniProt P20288, whole entry: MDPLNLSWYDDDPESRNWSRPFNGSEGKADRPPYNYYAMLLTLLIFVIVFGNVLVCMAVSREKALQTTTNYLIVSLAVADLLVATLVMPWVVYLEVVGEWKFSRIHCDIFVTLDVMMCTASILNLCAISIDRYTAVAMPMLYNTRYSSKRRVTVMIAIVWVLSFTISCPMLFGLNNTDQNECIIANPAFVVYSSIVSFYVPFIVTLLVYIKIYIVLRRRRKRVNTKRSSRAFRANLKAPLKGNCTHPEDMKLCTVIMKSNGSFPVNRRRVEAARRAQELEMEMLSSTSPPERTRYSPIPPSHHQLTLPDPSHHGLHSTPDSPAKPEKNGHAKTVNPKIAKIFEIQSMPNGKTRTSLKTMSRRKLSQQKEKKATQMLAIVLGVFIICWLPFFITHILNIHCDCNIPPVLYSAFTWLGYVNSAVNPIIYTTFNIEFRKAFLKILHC
UniProt P61168, whole entry: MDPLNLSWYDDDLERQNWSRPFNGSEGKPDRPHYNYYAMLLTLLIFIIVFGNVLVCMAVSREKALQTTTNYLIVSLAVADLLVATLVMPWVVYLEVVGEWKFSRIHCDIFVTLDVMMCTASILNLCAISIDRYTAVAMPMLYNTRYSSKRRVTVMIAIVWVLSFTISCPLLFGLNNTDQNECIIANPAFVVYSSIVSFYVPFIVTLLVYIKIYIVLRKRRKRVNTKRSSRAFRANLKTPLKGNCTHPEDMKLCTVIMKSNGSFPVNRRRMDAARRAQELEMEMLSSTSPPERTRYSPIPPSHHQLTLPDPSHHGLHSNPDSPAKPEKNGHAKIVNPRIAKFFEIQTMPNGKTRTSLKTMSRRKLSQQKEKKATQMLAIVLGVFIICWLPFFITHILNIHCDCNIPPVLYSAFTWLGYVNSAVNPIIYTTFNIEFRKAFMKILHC

Key:
[1] = biological target: Dopamine D2 receptor (Bos taurus, UniProt P20288); assay type: binding, bovine
Protocol: Membranes were prepared using a Brinkmann Polytron and collected by centrifugation. Membrane sources were bovine caudate (D2,D1) or rat cortex (α2). The membranes were washed, resuspended, and incubated at 37° C. for 30 min. in either the presence (rat cortex) of 1 μ/ml adenosine deaminase or absence (bovine caudate) of 0.1 μ/ml adenosine deaminase. Membranes were centrifuged, washed once and frozen at -70° C. until used. Immediately before use, the membranes were thawed, washed once, and resuspended to a final concentration of 0.5-2 mg/ml. Assays were initiated by addition of membranes. For D2 and D1 assays, the radioligands and conditions used were ^3 H-Spiperone (RT, 75 min.) and ^3 H-SCH23390 (37° C., 15 min.), respectively. For α2 assays, ^3 H-PAC (RT, 30 min.) was used Assays were terminated by filtration using a Brandel cell harvester over Whatman GF/B filters that had been pretreated with 0.1% polyethylenimine. […]

[2] = biological target: dopamine D2 receptor (Mus musculus, UniProt P61168); assay type: biochemical
Protocol: Vasa deferentia from male BALB/C mice weighing approximately 30 g were removed and placed in isolated organ baths containing magnesium-free modified Krebs-Henseleit solution which was gassed with 95% O2 and 5% CO2 and maintained at 37° C. Tissues were set up under resting tension of 0.5 g and stimulated electrically at 60 volts, 0.1 Hz and 1 msec duration to produce a series of twitch responses. Tissues were pretreated with propranolol (1 μM) to block β-adrenoceptors, idazoxan (3 μM) to block α2 -adrenoceptors receptors, and ascorbic acid (100 μM) for 60 min before the addition of test compound.

## CCCN(CCOC)[C@H]1CCc2c(ccc(O)c2O)C1 [Example 4]
[1]
  Selectivity Ratio (D1 K1/D2 K1): 19
[2]
  Specificity Ratio (a2 A50/D2 A50): 71
